As usually defined, the IC50 is the concentration at which inhibition is half-maximal. Higher therefore signals lower potency.

In this assay the target is T1, full‐length His6‐JMJD6 (Homo sapiens, UniProt Q6NYC1).
T1 construct: Isolated recombinant full‐length human JMJD6 with a N‐terminal His6‐tag; made in house; host or cells: Escherichia coli BL21 (DE3)
The experiment in a line: JMJD6 SPE–MS inhibition assay (BRD4_511–550 hydroxylation). The format is biochemical. Conditions: His6‐JMJD6 0.05 µM, 2OG 100 µM, FAS 2 µM, BRD4_511–550 1 µM, L‐ascorbic acid 100 µM; means of two independent runs (mean ± SD). The procedure:
Co‐substrate concentrations were chosen based on reported SPE–MS kinetic parameters for the JMJD6‐catalyzed BRD4_511–550 monohydroxylation reaction.^[ [56] ^] […] Since JMJD6 has a relatively high 2OG Kmapp , the JMJD6 SPE–MS inhibition assay employs a 2OG concentration which is relatively high compared to most other 2OG oxygenase SPE–MS assays, possibly more accurately reflecting cellular 2OG concentrations.^[ [59] ^, [60] ^] Likely saturating concentrations of LAA (100 µM) and FAS (2 µM) were used.
JMJD6 catalyzes oxidation of BRD4_511–550 to give multiple hydroxylation products,^[ [56] ^] an observation potentially complicating data analysis.
Isolated recombinant full‐length human JMJD6 with a N‐terminal His6‐tag was produced in Escherichia coli BL21 (DE3) cells and purified as reported.^[ [1] ^, [56] ^] […] Purified His6‐JMJD6 was stored at −78 °C; fresh aliquots were used for all JMJD6 assays.
DMSO and 2,4‐PDCA (final assay concentration: 500 µM) were used as negative and positive inhibition controls, respectively. Each reaction was performed in technical duplicates in adjacent wells of the assay plates. […]
The plates were centrifuged (1000 rpm, 5 s) and incubated for 15 min at ambient temperature. […] The plates were then centrifuged (1000 rpm, 30 s) and analyzed by MS. […]

In the case of `O=C(O)CC(C(=O)O)C(O)C(=O)O` (stereo not shown) [Isocitrate], the IC50 is over 50 µM.

The values above are taken from PMC12677844, “Profiling Inhibitor Scaffolds for the Cancer Target Jumonji‐C Domain‐Containing Protein 6” (Chemmedchem, 2025).
